Assay [1] deals with T1, D(2) dopamine receptor (Homo sapiens, UniProt P14416). Nature of the assay: Inhibition of [3H]raclopride binding to Dopamine receptor D2A in human.
The species entered for assay [2] is Rattus norvegicus. The assay can be described thus: Inhibition of 3[H]8-OH--DPAT and [3H]5-HT binding to 5-hydroxytryptamine 1A receptor and 5-hydroxytryptamine 7 receptor in rat. Summed up:
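Displacement binding with [3H]-8-OH-DPAT at 5-HT1A in rat hippocampal cells, and with [3H]-5-HT at rat 5-HT7 expressed in CHO or Sf9 cells.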

Assay [3] has as its target T1, D(2) dopamine receptor. Nature of the assay: Inhibition of [3H]raclopride binding to human dopamine D2A receptor expressed in Ltk cells. It is filed as cell-based.

For `CCCN(CCC)[C@H]1COc2c(cccc2-c2ccccc2)C1`, in assay [1], the Ki turned out to be 106 nM. The Ratio in assay [2] came out at 0.42. In turn, `CCCN(CCC)[C@H]1COc2c(cccc2-c2ccc(OC)cc2)C1` registered a Ki in assay [1] of 741 nM. The Ratio in assay [2] was determined as 0.1. In the case of `CCCN(CCC)[C@H]1CCc2c(cccc2-c2c(OC)cccc2OC)C1`, the Ki in assay [1] and in assay [3] was 1210 nM throughout. The Ratio in assay [2] came to 44. Turning to `O=C1c2ccccc2CCCN1CCN1CCC(n2c(=O)[nH]c3cc(F)ccc32)CC1`, the Ki in assay [1] amounted to 234 nM. Regarding `O=C1c2ccccc2CCCN1CCN1CCC(n2c(O)nc3cc(F)ccc32)CC1`, in assay [2], the Ratio came out at 214.

The record behind these values is ChEMBL document CHEMBL1138658, “Novel 2-aminotetralin and 3-aminochroman derivatives as selective serotonin 5-HT7 receptor agonists and antagonists” (J Med Chem, 2004).
